Laboratory results reported in US8975415B2, “Chromane compounds” (CoMentis, Inc., priority 2012, dated 2015).

Amino acid sequences for entries named in this document (tags omitted). Residues count along the entry.
UniProt P56817, 75-416: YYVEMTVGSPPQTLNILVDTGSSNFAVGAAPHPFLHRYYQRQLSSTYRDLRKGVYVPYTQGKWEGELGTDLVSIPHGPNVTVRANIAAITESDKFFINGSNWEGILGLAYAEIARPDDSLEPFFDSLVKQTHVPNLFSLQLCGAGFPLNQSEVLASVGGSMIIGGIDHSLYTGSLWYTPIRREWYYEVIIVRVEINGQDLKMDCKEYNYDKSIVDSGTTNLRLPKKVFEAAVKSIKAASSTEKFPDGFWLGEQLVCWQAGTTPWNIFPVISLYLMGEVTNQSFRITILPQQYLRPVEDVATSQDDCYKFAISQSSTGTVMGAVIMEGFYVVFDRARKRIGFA
UniProt P56817, 46-501: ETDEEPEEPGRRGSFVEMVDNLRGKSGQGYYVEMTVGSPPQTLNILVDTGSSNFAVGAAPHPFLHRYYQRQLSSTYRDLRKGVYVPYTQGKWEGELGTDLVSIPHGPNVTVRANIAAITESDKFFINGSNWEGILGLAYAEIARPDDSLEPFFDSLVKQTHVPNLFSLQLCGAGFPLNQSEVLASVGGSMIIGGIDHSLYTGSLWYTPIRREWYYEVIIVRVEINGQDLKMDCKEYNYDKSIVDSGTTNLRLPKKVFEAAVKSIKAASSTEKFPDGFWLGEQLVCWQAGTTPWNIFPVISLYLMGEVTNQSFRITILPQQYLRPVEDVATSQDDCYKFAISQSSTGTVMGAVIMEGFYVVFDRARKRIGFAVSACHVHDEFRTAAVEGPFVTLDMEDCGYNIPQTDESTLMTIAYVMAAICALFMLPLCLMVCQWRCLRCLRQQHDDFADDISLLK

Tests used:
BACE1 [1] = target: T1, BACE1 (Homo sapiens (Human), UniProt P56817); assay: Measurement of BACE1 inhibition by fluorescence resonance energy transfer (FRET), MCA substrate; settings: for Ki: read-out: Test Example 1 BACE1 MCA Ki, MCA substrate
BACE1 [2] = target: T1, BACE1; assay: Measurement of Aβ production inhibition in cell (SK-N-BE(2) neuroblastoma cells, Aβ40 ELISA); settings: read-out: Test Example 3 IC50, SK-N-BE(2) cells, 6 hours

With `CC1(C)Oc2ccc(NC(=O)c3ccc(Br)cn3)cc2[C@@]2(COC(N)=N2)C12COC2` [Example 219] the Ki (BACE1 [1]) was 0.0102 µM.

`NC1=NC2(CO1)c1cc(NC(=O)c3ncc(Cl)cc3F)ccc1OCC21CC1` (stereo not drawn) [RP 29] was tested, and the IC50 (BACE1 [2]) was 0.022 µM.

Work on `CC1(C)Oc2ccc(NC(=O)c3cnc(C(F)F)cn3)cc2[C@@]2(COC(N)=N2)C12CC2` [Example 224, N-[(4′R)-2″-amino-2′,2′-dimethyldispiro[cyclopropane-1,3′-chromene-4′,4″-[1,3]oxazol]-6′-yl]-5-(difluoromethyl)pyrazine-2-carboxamide] yielded a Ki (BACE1 [1]) of 0.0527 µM and an IC50 (BACE1 [1]; read-out: Test Example 1 IC50, MCA-SEVNLDAEFK(DNP)-NH2 substrate, pH 4.4) of 0.0914 µM.

`CC#Cc1cncc(-c2ccc3c(c2)C2(COC(N)=N2)C2(COC2)C(C)(C)O3)c1` (stereo not drawn) [RP 110] was tested, and the Ki (BACE1 [1]) was 0.0904 µM.

Molecule `COc1cnc(C(=O)Nc2ccc3c(c2)[C@@]2(COC(N)=N2)C2(CC2)C(C)(C)O3)cn1` [Example 223, N-[(4′R)-2″-amino-2′,2′-dimethyldispiro[cyclopropane-1,3′-chromene-4′,4″-[1,3]oxazol]-6′-yl]-5-methoxypyrazine-2-carboxamide] has a Ki (BACE1 [1]) of 0.0612 µM.
